This note sets out measurements from patent publication US20130116182A1, “Factor VIII B Cell Epitope Variants Having Reduced Immunogenicity” (priority 2009, published 2013).

For one test, the target named is HLA-DRB1*0101 (DR0101) (Homo sapiens, UniProt P01903+P01911, A100R/D57E/F55L/F60I/F76Y/I96L/L162R/M171V/P40L/Q125E/R42F/V115G/Y59C). Briefly: HLA-DR peptide binding competition assay, DR0101. Conditions: concentration displacing 50% reference peptide, ± standard error of the mean, NB = no binding.
The test system of a further test is CD4+ T cells. Briefly: Staining with peptide-loaded DR1101 tetramers (tetramer guided epitope mapping). The test is classed as cell-based, human.

Entries after “also recorded” stand apart in the source; their conditions may differ.

As to `CC[C@H](C)[C@H](NC(=O)[C@H](CC(N)=O)NC(=O)[C@H](CCC(=O)O)NC(=O)[C@@H](NC(=O)[C@H](CC(C)C)NC(=O)[C@H](Cc1ccc(O)cc1)NC(=O)[C@H](Cc1c[nH]c2ccccc12)NC(=O)[C@H](CO)NC(=O)[C@H](CCCNC(=N)N)NC(=O)[C@H](CC(N)=O)NC(=O)[C@@H](N)CCC(=O)O)[C@@H](C)O)C(=O)N[C@@H](CCC(N)=O)C(=O)N[C@@H](CCCNC(=N)N)C(=O)N[C@@H](Cc1ccccc1)C(=O)N[C@@H](CC(C)C)C(=O)N1CCC[C@H]1C(=O)N[C@@H](CC(N)=O)C(=O)N1CCC[C@H]1C(=O)N[C@@H](C)C(=O)NCC(=O)O` [FVIII581-600], the IC50 on HLA-DRB1*0101 (DR0101) is 38 ± 30 µM. The figures for the “tetramer staining of peptide-stimulated CD4+ T cells” value with CD4+ T cells (inhibitor subject 1D) and in the test with CD4+ T cells (mild HA subject 41A) were “Weaker positive staining; also recorded: tetramer-positive” and “positive staining; also recorded: tetramer-positive”, respectively.

The IC50 is the concentration that inhibits the measured activity by half. Higher therefore signals weaker potency in that assay.
